Test results as given in PMC11005723, “Development of Complementary Photo‐arginine/lysine to Promote Discovery of Arg/Lys hPTMs Interactomes” (Advanced Science, 2024).

Key:
MSH6PWWP = test: In vitro MSH6PWWP domain photo‐labeling by probes; type: binding; conditions: probe 10 µM, MSH6PWWP 2 µM, 30 min 4 °C, 365 nm 20 min, streptavidin‐HRP blot; n = 2
Method: The samples were irradiated at 365 nm for 20 min. 4 × Laemmli sample buffer was added (final diluted to 1 ×) and heated at 98 °C for 5 min. The samples were run on a 4–12% bis‐tris SDS‐PAGE gel and analyzed by western blot (detected by Streptavidin (HRP) anti‐biotin).

HEK 293T nuclear lysate = test: Pull‐down by diazirine labeled peptides with western blot; type: binding, human; conditions: 10 µµ peptide probe, UV crosslinking, n = 2
Method: The protocol refers to SILAC‐based pull‐down assay with the following modifications. HEK293T cells were plated in normal DMEM medium and the protocol of nuclear lysate extraction is as same as SILAC‐based assay. After incubating and crosslinking with 10 µµ peptides probes, the whole protein in each group was precipitated and resolved in 1% SDS PBS buffer. Then peptides trapped protein was enriched with 50 µL high‐capacity streptavidin agarose resin separately. The enriched protein on beads were released in 4X Laemmli sample buffer by heating at 98 °C for 20 min. At last, the samples were run on a 4–12% bis‐tris SDS‐PAGE gel and analyzed by western blot. The assay was done two times to confirm results.

Substance	covalent labeling of MSH6PWWP domain (MSH6PWWP)	proteins enriched in pull‐down (western blot) (HEK 293T nuclear lysate)
probe 4: H3R2me2a peptide probe with δ‐photo‐lysine at K4 and K(biotin)	more efficiently covalently labeled	
probe 1: H3 peptide probe, photo‐arginine at R2, unmodified K4, K(biotin)		RBBP4/7 were enriched
probe 2: H3 peptide probe, photo‐arginine at R2, K4me3, K(biotin)		SPIN1, ING2 and WDR5 were enriched
